# AlphaSeq binding of Ab-14 heavy chain variants to a spike HR2 peptide

The measurements come from Engelhart et al. 2022 (doi:10.1038/s41597-022-01779-4) through the FLAb antibody collection.

Target peptide (SARS-CoV-2 spike, HR2 region): PDVDLGDISGINAS

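The library (AAYL49) carries one to three amino acid substitutions per variant, with no insertions or deletions. The scFvs were displayed on barcoded MATa yeast, the peptide on MATalpha yeast. After mating in shaken culture at 30 °C for 16 h, diploids were selected and their barcode pairs sequenced. Scores were corrected for input abundance and mapped to Kd with protein pairs of known affinity run in the same pool. The assay was run in three technical replicates.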

Each scFv is VH, the linker GGGGSGGGGSGGGGS, VL, as in the parent Ab-14, and differs from it in the CDRs of the heavy chain only.
VH: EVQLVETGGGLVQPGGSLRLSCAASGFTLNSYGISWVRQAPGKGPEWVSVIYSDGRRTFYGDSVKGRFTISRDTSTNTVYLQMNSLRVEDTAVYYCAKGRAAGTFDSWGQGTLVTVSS
VL: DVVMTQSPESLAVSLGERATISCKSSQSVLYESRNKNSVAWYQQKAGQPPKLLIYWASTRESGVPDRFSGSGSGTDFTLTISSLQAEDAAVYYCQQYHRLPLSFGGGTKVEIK

The parent's heavy chain CDRs are GFTLNSYGIS, VIYSDGRRTFYGDSVK, GRAAGTFDS; each variant's own CDRs replace them letter for letter. Scale: log10 of Kd in nM, estimated from mating counts; low values are strong binders. A mean of the replicates is given; it leaves out those without a signal. "not detected" means that the variant was in the library but no mating with the target was seen in any replicate; the authors take this as a sign of poor binding, and no number exists. Nonspecific signal, from three strains lacking the peptide, appeared in 15% of pairings of library AAYL49, centred on 4.06 (5% of these signals below 2.83); values are not corrected for it. The control count says in how many pairings with the empty strains this scFv gave a signal.

| # | CDR-H1 | CDR-H2 | CDR-H3 | mean log10 Kd (nM) | detected | signal with controls |
|---|---|---|---|---|---|---|
| 1 | GSTLNSYGIS | VIYSDGRRTEYGDSVK | GRAAGTFDV | 2.68 | 3/3 | 4/9 |
| 2 | GFTLMSYGIS | VIYSDIRRTFYGDSVK | GRAAGTDDS | 3.98 | 1/3 | 4/9 |
| 3 | GFTLNSYPIS | HIYSDGRRTFYGDSVK | GRACGTFDS | 4.61 | 1/3 | 3/9 |
| 4 | GFDLRSYGIS | VIYSDGRLTFYGDSVK | GRAAGTFDS | 3.34 | 2/3 | 1/9 |
| 5 | GFTLNSYGIS | VIYSDGRNTFYGDSVQ | GRAACTFDS | 4.69 | 1/3 | 1/9 |
| 6 | GFTLASYGIS | VIYSDGYRTFYGDSVK | GRAAGFFDS | not detected | 0/3 | 0/9 |
| 7 | GFTLNSYGIS | VIYGDGRRPFYGDSVK | GRAFGTFDS | 3.74 | 3/3 | 3/9 |
| 8 | GFTLVSYGIS | VIYSDGRRTFYGDSVK | IMAAGTFDS | 2.01 | 3/3 | 0/9 |
| 9 | GFTLNSYVIS | VIYSDGPRTFYGDSVK | GRAAGTFDS | not detected | 0/3 | 2/9 |
| 10 | GFTLCNYGIS | VIYSDGRRTFYGDSVK | GRAAKTFDS | 4.64 | 2/3 | 3/9 |
| 11 | GFTLNSYGIS | VIYVDGRRTFYGDSVA | GRAAWTFDS | 3.04 | 2/3 | 1/9 |
| 12 | GVTLNSYGIS | VIYIDGRRTFYGDSVK | GRAAGTFFS | 4.08 | 3/3 | 8/9 |
| 13 | GFTLNSYGIS | VIYSDLRRTFYGDSVK | GRATGTFDS | 4.97 | 1/3 | 4/9 |
| 14 | GFTLNSYGIS | VIYSDGRETFYGKSVK | GRAAGTFDS | not detected | 0/3 | 2/9 |
| 15 | GFTLNSYGIS | VIYSQGRYTFYTDSVK | GRAAGTFDS | not detected | 0/3 | 0/9 |
| 16 | GFTLNSYGIS | VIYSDGRRTFHGDSVK | GRWEGTFDS | not detected | 0/3 | 3/9 |
| 17 | GFMLNSYYIS | VIYSDGRRTFYGDSVK | GRAAGTFMS | not detected | 0/3 | 2/9 |
| 18 | GFTLNSYGIW | VIYSDGRRTFYGDWVD | GRAAGTFDS | 3.89 | 2/3 | 2/9 |
| 19 | GFTLNSYGIS | VIYSDGIRTFYGDSVK | GMIAGTFDS | 3.28 | 3/3 | 0/9 |
| 20 | GNTLNSYGIS | VIYSDGRRTFSGDSVK | GRDAGTFDS | not detected | 0/3 | 0/9 |
| 21 | GRTLNSYGIS | VIYSDGRYLFYGDSVK | GRAAGTFDS | not detected | 0/3 | 1/9 |
| 22 | GETLNSYQIS | VIYSDGRRTFYGDSVK | GRAIGTFDS | not detected | 0/3 | 1/9 |
| 23 | GFTLNSYGIS | RIYSDGRRTFYGDSVR | GRAAWTFDS | not detected | 0/3 | 0/9 |
| 24 | IFTLNSYGIS | VIYSDGRRTFYGDSVK | GIAAGTADS | not detected | 0/3 | 1/9 |
| 25 | GFTLHSYGIS | VIYSVGRRTFYGDSWK | GRAAGTFDS | not detected | 0/3 | 0/9 |
| 26 | GFTLNSYGIS | VIYSDGRRTEYGDSNK | GMAAGTFDS | 4.56 | 2/3 | 3/9 |
| 27 | GATLNVYGIS | VIHSDGRRTFYGDSVK | GRAAGTFDS | 5.06 | 1/3 | 1/9 |
| 28 | SFTLNSYGIS | VIYSDGRRTFYGDCVK | GRAAGTFIS | 2.70 | 3/3 | 1/9 |
| 29 | GFTLNSYSIS | VIYSDGRRTFYSDFVK | GRAAGTFDS | 5.59 | 1/3 | 3/9 |
| 30 | GFTLNSLGHS | VIYSDGRRTFYGDSVK | GRFAGTFDS | not detected | 0/3 | 1/9 |
| 31 | GFVLNSYGIS | HIYSDGRRTRYGDSVK | GRAAGTFDS | 5.75 | 2/3 | 3/9 |
| 32 | GFTSNSYGIS | VIYSDGRRTFYGDSVK | GRAATTFDT | 3.65 | 1/3 | 2/9 |
| 33 | GFTLNSYGIS | LIYVDGRRTFYGDSVK | GRAAGTFDS | not detected | 0/3 | 0/9 |
| 34 | GFTLNSYGIS | TFYSDGRRTFYEDSVK | GRAAGTFDS | not detected | 0/3 | 2/9 |
| 35 | GFTLNSYGIS | VIYSPGRRTFYGHSVK | GRAAQTFDS | not detected | 0/3 | 1/9 |
| 36 | GFTLNSYCIS | VIYSDGRRTFYGDSVD | GRAAGTFDS | 4.36 | 2/3 | 2/9 |
| 37 | GFTLYSYGIS | VIYSDGRRTFYGYSVK | GRAMGTFDS | not detected | 0/3 | 0/9 |
| 38 | GFPLNSYGIS | VIYSDKRRTFYGDSVK | GRAKGTFDS | 5.75 | 2/3 | 6/9 |
| 39 | GFTLNSYGIS | DIYSDGRRTFNGDSVK | GRAAGRFDS | 3.36 | 1/3 | 1/9 |
| 40 | RFTLNSYGIS | VHYSDGRRTHYGDSVK | GRAAGTFDS | 4.30 | 2/3 | 4/9 |
| 41 | GFTENSYGIG | VIYSDGRRTFYGLSVK | GRAAGTFDS | 3.23 | 1/3 | 0/9 |
| 42 | GFYLNSYGIS | VIYSDGRRTFYGYSVK | GRAAGTFDS | not detected | 0/3 | 0/9 |
| 43 | EFTLNSYGIS | VIYSDGRRTFYGDSVK | GDAAGTFDV | 2.01 | 3/3 | 0/9 |
| 44 | GFTLNSYGIS | VIYSDGRRTKYGDSPK | NRAAGTFDS | not detected | 0/3 | 0/9 |
| 45 | GFYLNSYGIS | VIYSDGRRTFYGDSVK | GRAAGTYDS | not detected | 0/3 | 1/9 |
| 46 | GFTLNSYGIS | VIYSDGLRTFYGGSVK | GRAAGHFDS | not detected | 0/3 | 1/9 |
| 47 | YFTLNSYGIS | VIGADGRRTFYGDSVK | GRAAGTFDS | 2.66 | 2/3 | 0/9 |
| 48 | GATLNSYGIS | VIYSDGRRTQYGDSVK | GRAADTFDS | 4.11 | 1/3 | 1/9 |
| 49 | GFTCNSYGIS | MEYSDGRRTFYGDSVK | GRAAGTFDS | 5.28 | 2/3 | 1/9 |
| 50 | PFTLNSYGIS | VIYSDGRRTFYGDSVK | GRVLGTFDS | 3.29 | 3/3 | 7/9 |
| 51 | GFTLNSYGIS | VIYSDERPTFYGDSVK | GRAAGTFIS | 2.63 | 1/3 | 1/9 |
| 52 | GFMLNSYGIS | VIYSDGARTFYGDSVK | GRAMGTFDS | 1.98 | 3/3 | 2/9 |
| 53 | GFTLNSDGIS | VIYSDGRRTFYGDSVK | GRAAGTFYK | 1.79 | 1/3 | 0/9 |
| 54 | GFTLNSYGIS | VIYDDGRRTFYGYSVK | GRAEGTFDS | 3.22 | 2/3 | 1/9 |
| 55 | GFTLISYGIS | VIYSDGERTFYGDSVK | GRAAGTFDS | 3.25 | 3/3 | 2/9 |

A selection of 7 entries from above:

{"CDR-H1": "GATLNVYGIS", "CDR-H2": "VIHSDGRRTFYGDSVK", "CDR-H3": "GRAAGTFDS", "mean log10 Kd (nM)": "5.06", "detected": "1/3", "signal with controls": "1/9"}
{"CDR-H1": "GATLNSYGIS", "CDR-H2": "VIYSDGRRTQYGDSVK", "CDR-H3": "GRAADTFDS", "mean log10 Kd (nM)": "4.11", "detected": "1/3", "signal with controls": "1/9"}
{"CDR-H1": "GFTLNSYGIS", "CDR-H2": "VIYSDGRRTEYGDSNK", "CDR-H3": "GMAAGTFDS", "mean log10 Kd (nM)": "4.56", "detected": "2/3", "signal with controls": "3/9"}
{"CDR-H1": "GFTLNSYGIS", "CDR-H2": "LIYVDGRRTFYGDSVK", "CDR-H3": "GRAAGTFDS", "mean log10 Kd (nM)": "not detected", "detected": "0/3", "signal with controls": "0/9"}
{"CDR-H1": "GFTLNSYGIS", "CDR-H2": "VIYSPGRRTFYGHSVK", "CDR-H3": "GRAAQTFDS", "mean log10 Kd (nM)": "not detected", "detected": "0/3", "signal with controls": "1/9"}
{"CDR-H1": "GFTLNSDGIS", "CDR-H2": "VIYSDGRRTFYGDSVK", "CDR-H3": "GRAAGTFYK", "mean log10 Kd (nM)": "1.79", "detected": "1/3", "signal with controls": "0/9"}
{"CDR-H1": "GFTSNSYGIS", "CDR-H2": "VIYSDGRRTFYGDSVK", "CDR-H3": "GRAATTFDT", "mean log10 Kd (nM)": "3.65", "detected": "1/3", "signal with controls": "2/9"}